Laboratory results from patent publication US20210361768A1, “METHODS AND MATERIALS FOR ASSESSING AND TREATING CANCERS” (Mayo Foundation for Medical Education and Research, priority 2018, published 2021).

Experiments:
[1] = system: HER2-positive breast cancer; experiment: NeoALTTO trial: pathologic complete response and event-free survival by treatment arm and adaptive immune signature (AIS) status; type: in vivo, human; settings: for %6-yr EFS (6-year Event Free Survival rate) / % pCR (complete pathological response rate): NeoALTTO patients
[2] = system: HER2-positive breast cancer; experiment: NCCTG N9831 trial: recurrence-free survival by treatment arm and CD45 mTIL / AIS status; type: in vivo, human
Source text: A total of 1,280 patients from the NCCTG N9831 (Perez EA et al., Journal of clinical oncology: official journal of the American Society of Clinical Oncology, 32:3744-52 (2014)), 168 patients in FinHer (Joensuu H et al., N Engl. J. Med, 354:809-20 (2006)), and 170 patients in FinXX (Joensuu H et al., Journal of clinical oncology: official journal of the American Society of Clinical Oncology, 30:11-8 (2012)), were included in this analysis. […] In the FinXX trial (Joensuu H et al., Journal of clinical oncology: official journal of the American Society of Clinical Oncology, 30:11-8 (2012)), patients were randomized to receive either 3 cycles of docetaxel and capecitabine followed by 3 cycles of cyclophosphamide, epirubicin, and capecitabine (TX/CEX) or 3 cycles of docetaxel followed by 3 cycles of cyclophosphamide, epirubicin, and fluorouracil (T/CEF). […] Median follow-up was 10.6 years (range 0.8 months-15.3 years) in the NCCTG N9831 trial, 5.5 years in the FinHER trial, and 7.0 years in the FinXX trial.
NanoString™ technology was used to quantify mRNA in paraffin embedded tumor samples from the NCCTG N9831, FinHER, and FinXX trials. Immune subset signatures were calculated using normalized and log2 transformed data based on previous publication by Danaher et al. (Danaher P et al., J Immunother Cancer, 5:18 (2017)). The geometric mean across relevant genes listed in the table below was calculated to generate the composite score for each immune subset signature, namely CD45, B cells, CD8 T cells, cytotoxic cells, exhausted CD8, immature dendritic cells (iDC), macrophages, mast cells, neutrophils, NK CD56 dim cells, T cells, and regulatory T cells (Treg). The score was mean-centered and standardized in all analyses.
For outcome analysis, recurrence-free survival (RFS) was defined as the time from random assignment to breast cancer recurrence (local, regional, or distant recurrence of breast cancer or breast cancer-related death). The time to event for patients who died without recurrence was considered censored at the time of death.

[3] = AIS deficient, listed as trastuzumab

Trastuzumab: humanized IgG1 κ monoclonal antibody against extracellular domain of human epidermal growth factor receptor 2 (HER2)
OR for pCR, enriched AIS compared to deficient AIS ([1]; NeoALTTO arm B, 95% CI 2.25-54.42, p=0.0004): 9.12 | %6-yr EFS (6-year Event Free Survival rate) ([1]; AIS deficient): 63% | % pCR (complete pathological response rate) ([1]; AIS deficient): 8% | %6-yr EFS (6-year Event Free Survival rate) [1, 3]: 63% | % pCR (complete pathological response rate) [1, 3]: 8% | % pCR (complete pathological response rate) ([1]; AIS enrich): 43% | % pCR (complete pathological response rate) ([1]; AIS enrich, listed as trastuzumab): 43% | Benefit from treatment (outcome, in words) ([2]; NCCTG N9831, both AIS deficient and enriched groups, particularly when given in a concurrent fashion): benefit | HR for RFS, CD45 enrichment vs no enrichment ([2]; NCCTG N9831 arm C (AC-TH), 95% CI 0.49-1.28, p=0.34): 0.79 | 10-year Kaplan-Meier estimate for RFS ([2]; NCCTG N9831 arm C (trastuzumab concurrently with chemotherapy, AC-TH), patients with CD45 enrichment): 83.6% | 10-year Kaplan-Meier estimate for RFS ([2]; NCCTG N9831 arm C (trastuzumab concurrently with chemotherapy, AC-TH), patients with no CD45 enrichment): 79.8% | 10-year Kaplan-Meier estimate for RFS ([2]; NCCTG N9831 sequential trastuzumab arm (AC-T-H), patients with CD45 enrichment): 81.3% | 10-year Kaplan-Meier estimate for RFS ([2]; NCCTG N9831 sequential trastuzumab arm (AC-T-H), patients with no CD45 enrichment): 72.6% | HR for RFS, CD45 enrichment vs no enrichment ([2]; NCCTG N9831 sequential trastuzumab arm (AC-T-H), 95% CI 0.42-0.93, p=0.02): 0.63
